A selection: hits, their analogues and other compounds. The true share with any hit is near 1%.
C2C12 statin: protects C2C12 myotubes from simvastatin toxicity; ATP luminescence, 48 h; scaled: DMSO 0, geranylgeraniol control 100; rescue of ATP level, % at 7.49 µM; hit rate 0.78% among 330,000; AID 602340;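 active means mean ATP rescue above about 67%, or every replicate alone reaching that limit, limit read from the data, passing the limit was not always enough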;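 further: myotubes were challenged with 10 µM simvastatin during compound exposure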
Rtt109 HAT inh: C. albicans Rtt109 histone acetyltransferase inhibition; purified Rtt109/Vps75, ThioGlo CoA-SH fluorescence, 4 h; Q5AAJ8; inhibition, % at 34.9 µM; hit rate 0.16% among 330,000; AID 540336;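 active means inhibition of at least 50% in every replicate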
CDK5 inh: blocks human CDK5/p35 kinase activity. inhibition, % at 10 µM. hit rate 0.01% among 330,000. Recombinant CDK5/p35, ADP-Glo luminescence, 60 min. Q00535+Q15078;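 active means highest replicate inhibition of at least 50% and at least 75% of replicates reaching 50%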;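 further: plate controls were DMSO neutral control for no effect and GW8510 at 10 µM for full effect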
Yeast UUG start: alters start codon recognition fidelity in yeast. S. cerevisiae UUG-firefly luciferase reporter, luminescence/redox ratio. AID 602363. activity score, % at 18.7 µM. hit rate 0.13% among 350,000;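 active = replicate mean at a twofold rise or more, about +100% in these data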;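 note: firefly luciferase made from a UUG start codon reports start codon fidelity; reporter light over untreated wells divided by growth signal over untreated wells; some hits fall short of that in this replicate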
Cneo AK release: causes C. neoformans cell lysis. lysis activity, % at 15 µM. hit rate 0.2% among 360,000. AID 651654. adenylate kinase release luminescence, 4 h; normalised: neutral wells 0, clomiphene wells 100;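 active means mean lysis activity across replicates of at least 80%, whatever share of replicates individually reach that level; inactive means mean lysis activity below 80%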
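Material – log-phase Cryptococcus neoformans yeast cells · Input – 5 × 10^6 yeast cells/mL · Medium – fresh YPD growth medium · Doses – single compound concentration per well · Timing – static 4 h at 37 °C with compound, 1 h detection · Detection – adenylate kinase release luminescence · Read-out – signal increase indicating cell lysis · Control set – Clomiphene as positive lysis control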
* marks the source's active call; other numbers are inactive results; . = no result given.

SMILES	C2C12 statin	Rtt109 HAT inh	CDK5 inh	Yeast UUG start	Cneo AK release
C[C@@H]1CN([C@H](C)CO)C(=O)Cc2cc(NC(=O)Cc3cn(C)c4ccccc34)ccc2O[C@H]1CN(C)Cc1ccc(Cl)c(Cl)c1	95*	.	.	-9	3
C[C@@H]1CN([C@@H](C)CO)C(=O)Cc2cc(NC(=O)Cc3cn(C)c4ccccc34)ccc2O[C@@H]1CN(C)Cc1ccc(Cl)c(Cl)c1	52	.	.	41	48
C[C@@H]1CN([C@@H](C)CO)C(=O)Cc2cc(NC(=O)Cc3cn(C)c4ccccc34)ccc2O[C@H]1CN(C)Cc1ccc(Cl)c(Cl)c1	72*	.	.	-2	6
C[C@H]1CN([C@@H](C)CO)C(=O)Cc2cc(NC(=O)Cc3cn(C)c4ccccc34)ccc2O[C@@H]1CN(C)Cc1ccc2c(c1)OCO2	-12	.	.	6	-3
C[C@@H]1CCCCO[C@H](CN(C)C(=O)Nc2ccccc2)[C@@H](C)CN([C@H](C)CO)C(=O)c2cc(NS(=O)(=O)c3ccccc3)ccc2O1	.	.	.	-3	1
CCCC#Cc1ccc2c(c1)O[C@@H](CN(C)C(=O)c1ccccn1)[C@@H](C)CN([C@H](C)CO)S2(=O)=O	6	.	.	-8	2
O=c1[nH]cnc2scc(-c3ccsc3)c12	117*	12	1	-23	-1
Cc1ccc(CSCC(=O)Nc2ccc3c(c2)OCO3)cc1	103*	2	1	-12	1
COc1ccc(N2CN=C3SCC(=O)N3C2)cc1	106*	-3	0	-15	2
Cc1cc(C)cc(N2CN=C3SCC(=O)N3C2)c1	.	-6	0	6	1
COc1ccc(S(=O)(=O)N(C)C[C@@H]2Oc3ccc(NC(=O)c4ccncc4)cc3CC(=O)N([C@@H](C)CO)C[C@@H]2C)cc1	13	.	.	-10	-1
O=C(c1cccs1)N1CCN(C2CCN(Cc3ccccc3)CC2)CC1	101*	-5	0	-17	-3
COc1ccc(CN2CCN(C(=O)c3cccs3)CC2)cc1Br	157*	0	-1	-14	-2
COc1ccc(CN2CCN(C(=O)c3cccc4ccccc34)CC2)cc1Br	-6	12	-3	-14	-1
C[C@H]1CN([C@@H](C)CO)C(=O)c2cc(NS(=O)(=O)c3ccc(F)cc3)ccc2O[C@@H]1CN(C)C(=O)Nc1ccc2c(c1)OCO2	12	.	.	4	0
O=C(C[C@H]1CC[C@@H](NC(=O)c2ccccc2)[C@H](CO)O1)NCc1ccc(Oc2ccccc2)cc1	13	.	.	-28	0
COc1ccc(NC(=O)CN2CCCC2)cc1	4	-6	-1	1	-2
COc1ccc(NC(=O)Cn2nc3n(c2=S)CCC3)cc1	100*	-13	0	-26	2
O=C(Nc1ccc2c(c1)OCO2)N[C@H]1CC[C@H](CCNC(=O)C2CCCCC2)O[C@@H]1CO	0	.	.	-3	-3
CC(C)CNC(=S)N1CCN(C(c2ccccc2)c2ccccc2)CC1	.	1	2	.	.

Profiles from above. Screens in order: C2C12 statin | Rtt109 HAT inh | CDK5 inh | Yeast UUG start | Cneo AK release
Results for C[C@H]1CN([C@@H](C)CO)C(=O)c2cc(NS(=O)(=O)c3ccc(F)cc3)ccc2O[C@@H]1CN(C)C(=O)Nc1ccc2c(c1)OCO2 : 12 | . | . | 4 | 0
Results for O=C(C[C@H]1CC[C@@H](NC(=O)c2ccccc2)[C@H](CO)O1)NCc1ccc(Oc2ccccc2)cc1 : 13 | . | . | -28 | 0
Results for Cc1cc(C)cc(N2CN=C3SCC(=O)N3C2)c1 : . | -6 | 0 | 6 | 1
Results for COc1ccc(CN2CCN(C(=O)c3cccc4ccccc34)CC2)cc1Br : -6 | 12 | -3 | -14 | -1
Results for COc1ccc(S(=O)(=O)N(C)C[C@@H]2Oc3ccc(NC(=O)c4ccncc4)cc3CC(=O)N([C@@H](C)CO)C[C@@H]2C)cc1 : 13 | . | . | -10 | -1

(more compounds)
SMILES	C2C12 statin	Rtt109 HAT inh	CDK5 inh	Yeast UUG start	Cneo AK release
S=C(NCc1ccco1)N1CCN(C(c2ccccc2)c2ccccc2)CC1	86*	0	3	-24	8
C/C(=N\NC(N)=S)c1cc(-c2ccccc2)c(-c2ccccc2)s1	108*	-16	-1	-15	19
C/C(=N\NC(N)=S)c1ccccc1	.	4	-1	-38	-1
CN1C(=O)c2cc(NS(=O)(=O)c3ccc(F)cc3)ccc2OC[C@H]2O[C@H](CC(=O)NCC(F)(F)F)CC[C@@H]21	-23	.	.	8	3
C[C@@H]1CN([C@@H](C)CO)C(=O)c2cc(NS(=O)(=O)c3ccc(F)cc3)ccc2O[C@@H](C)CCCCO[C@@H]1CN(C)C(=O)Cc1ccccc1	.	.	.	9	-11
C[C@@H]1CN([C@@H](C)CO)S(=O)(=O)c2ccc(-c3ccc(F)cc3)cc2O[C@H]1CN(C)Cc1cccc(F)c1	-95	.	.	-1	.
Nc1ccc2c3c(cccc13)-c1ccccc1-2	126*	12	0	-8	4
Cc1ccc2c3c(cccc13)-c1ccccc1C2=O	.	-4	3	0	2
C[C@H](O)C#Cc1cnc2c(c1)C(=O)N([C@@H](C)CO)C[C@@H](C)[C@H](CN(C)C(=O)Cc1ccncc1)O2	-5	.	.	.	-1
Cc1cc2cc(C)c3nnc(SCC(=O)N4CCN(C(=O)c5ccco5)CC4)n3c2cc1C	.	-1	0	.	.
Cn1c(SCC(=O)N2CCN(C(=O)c3ccco3)CC2)nnc1-c1ccc(NS(C)(=O)=O)cc1	98*	1	-2	-9	0
COc1cccc(NC(=O)N(C)C[C@H]2OCc3ccccc3-c3ccccc3C(=O)N([C@@H](C)CO)C[C@H]2C)c1	-18	.	.	.	-5
CCOC(=O)N1CCN(C(=S)NC(=O)c2nn(C)cc2Br)CC1	125*	.	0	-24	-9
O=C(NCC1CCCO1)c1ccc(Cl)c(F)c1F (configuration not stated)	84*	.	-1	-1	0
O=C(NCC1CCCO1)c1ccc(C(=O)NCC2CCCO2)cc1 (configuration not stated)	4	-2	-4	.	.
COc1ccc(S(=O)(=O)N(C)C[C@H]2OCCCC[C@H](C)Oc3ccc(NC(=O)CCCN(C)C)cc3C(=O)N([C@@H](C)CO)C[C@H]2C)cc1	.	.	.	23	0
COc1ccccc1/C=N/NC(=S)NCc1ccco1	.	-1	2	-27	89*
CO[C@H]1CN(C)C(=O)c2cc(NC(=O)C3CC3)ccc2OC[C@H](C)N(CC2CCOCC2)C[C@@H]1C	1	.	.	-2	-18
CCOc1ccc(NS(=O)(=O)c2ccc(-c3coc(C)n3)cc2)cc1	2	1	.	-5	-1
CCOC(=O)c1ccc(NS(=O)(=O)c2ccc(-c3coc(C)n3)cc2)cc1	93*	-8	-1	-13	3
Cc1noc(C)c1NC(=O)Nc1ccc2c(c1)CC(=O)N([C@@H](C)CO)C[C@@H](C)[C@H](CN(C)Cc1ccc3c(c1)OCO3)O2	-3	.	.	-5	-1
COc1ccc(S(=O)(=O)Nc2cccc3c2O[C@H](CN(C)Cc2ccc4c(c2)OCO4)[C@@H](C)CN([C@H](C)CO)C3=O)cc1	-24	.	.	7	3
COc1ccc(-c2cnc3c(c2)C(=O)N([C@@H](C)CO)C[C@H](C)[C@@H](CN(C)S(C)(=O)=O)O3)cc1	-2	.	.	9	81*
COc1ccc(-c2cnc3c(c2)C(=O)N([C@H](C)CO)C[C@@H](C)[C@H](CN(C)S(=O)(=O)c2ccc(OC)cc2)O3)cc1	16	.	.	.	.
C[C@H]1CN([C@@H](C)CO)C(=O)c2cc(/C=C/c3ccccc3)cnc2O[C@H]1CN(C)S(C)(=O)=O	6	.	.	18	19
C[C@@H]1CN([C@H](C)CO)C(=O)c2cc(/C=C/c3ccccc3)cnc2O[C@@H]1CN(C)S(C)(=O)=O	-11	.	.	10	87*
C[C@H](CO)N1C[C@H](C)[C@H](CN(C)CC2CCCCC2)Oc2ncc(-c3ccc(F)cc3)cc2C1=O	-5	.	.	3	-2

Assay outcomes: PubChem, Broad Institute
